Molecular target: T1, Nav1.2 (Mus musculus, UniProt B1AWN6)
T1 construct: endogenous in cells
Test: Whole-cell patch-clamp, sodium channel Nav1.2 (N1E-115)
Type: cell-based

Protein sequences, listed by entry. Tags and fused reporters are not part of them.
UniProt B1AWN6, whole entry: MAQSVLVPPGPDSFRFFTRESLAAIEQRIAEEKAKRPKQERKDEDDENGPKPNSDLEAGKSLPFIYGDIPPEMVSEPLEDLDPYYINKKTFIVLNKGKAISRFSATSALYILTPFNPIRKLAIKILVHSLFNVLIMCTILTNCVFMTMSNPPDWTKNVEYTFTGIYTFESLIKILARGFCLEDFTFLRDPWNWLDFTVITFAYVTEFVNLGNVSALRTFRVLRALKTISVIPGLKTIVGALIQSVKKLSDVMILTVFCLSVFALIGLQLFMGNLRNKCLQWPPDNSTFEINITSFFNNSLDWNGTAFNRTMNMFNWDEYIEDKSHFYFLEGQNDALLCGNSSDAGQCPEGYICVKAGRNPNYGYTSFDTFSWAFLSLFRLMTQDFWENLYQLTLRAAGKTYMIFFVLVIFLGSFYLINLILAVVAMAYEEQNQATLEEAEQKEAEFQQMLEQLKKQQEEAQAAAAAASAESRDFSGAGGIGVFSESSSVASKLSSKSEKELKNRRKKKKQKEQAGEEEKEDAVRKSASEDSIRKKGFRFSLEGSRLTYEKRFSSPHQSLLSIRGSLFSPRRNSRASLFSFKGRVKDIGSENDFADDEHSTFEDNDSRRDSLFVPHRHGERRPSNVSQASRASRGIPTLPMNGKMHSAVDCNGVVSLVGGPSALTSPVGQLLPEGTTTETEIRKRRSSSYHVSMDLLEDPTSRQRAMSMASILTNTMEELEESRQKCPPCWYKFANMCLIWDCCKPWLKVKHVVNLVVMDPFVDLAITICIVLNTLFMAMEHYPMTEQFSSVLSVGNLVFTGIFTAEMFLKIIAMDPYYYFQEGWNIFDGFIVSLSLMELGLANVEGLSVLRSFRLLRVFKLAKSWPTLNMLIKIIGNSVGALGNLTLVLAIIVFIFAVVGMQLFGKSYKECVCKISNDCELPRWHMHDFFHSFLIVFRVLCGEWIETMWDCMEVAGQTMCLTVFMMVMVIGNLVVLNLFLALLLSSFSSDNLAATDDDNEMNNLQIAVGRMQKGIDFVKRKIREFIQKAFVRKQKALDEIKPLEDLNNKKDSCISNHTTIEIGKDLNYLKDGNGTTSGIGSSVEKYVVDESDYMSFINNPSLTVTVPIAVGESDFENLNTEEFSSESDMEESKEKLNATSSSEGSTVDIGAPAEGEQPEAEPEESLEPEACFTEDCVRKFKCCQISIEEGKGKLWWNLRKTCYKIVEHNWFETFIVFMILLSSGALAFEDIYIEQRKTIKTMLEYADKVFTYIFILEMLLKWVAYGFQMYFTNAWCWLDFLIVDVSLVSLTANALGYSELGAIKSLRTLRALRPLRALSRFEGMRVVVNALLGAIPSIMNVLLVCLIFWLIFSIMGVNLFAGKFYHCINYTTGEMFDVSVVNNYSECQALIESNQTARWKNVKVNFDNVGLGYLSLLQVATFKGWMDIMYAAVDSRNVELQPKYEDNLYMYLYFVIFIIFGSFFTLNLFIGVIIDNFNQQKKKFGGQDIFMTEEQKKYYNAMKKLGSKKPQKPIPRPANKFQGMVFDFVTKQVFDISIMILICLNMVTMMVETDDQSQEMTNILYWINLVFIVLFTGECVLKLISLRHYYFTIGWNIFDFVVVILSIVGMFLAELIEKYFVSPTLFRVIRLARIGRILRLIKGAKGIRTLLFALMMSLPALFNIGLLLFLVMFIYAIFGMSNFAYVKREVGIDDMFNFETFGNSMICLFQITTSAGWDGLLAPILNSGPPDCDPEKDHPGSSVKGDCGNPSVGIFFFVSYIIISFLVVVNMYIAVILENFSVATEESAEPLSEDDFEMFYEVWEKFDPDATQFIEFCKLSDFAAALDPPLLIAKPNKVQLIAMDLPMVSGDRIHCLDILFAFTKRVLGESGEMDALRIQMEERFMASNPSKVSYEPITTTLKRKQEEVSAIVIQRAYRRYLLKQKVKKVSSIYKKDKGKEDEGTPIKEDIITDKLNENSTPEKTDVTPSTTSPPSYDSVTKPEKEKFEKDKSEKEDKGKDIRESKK

Structure (SMILES)	Kd (whole-cell patch-clamp, n = 3) [nM]	S (selectivity over Nav1.2), S = Kd Nav1.2/Kd Kv1.3
O=c1ccc2c(OCCCCc3ccccc3)c3ccoc3cc2o1 [J 19 (Psora 4), 4-(4-Phenylbutoxy)-7H-furo[3,2-g][1]benzopyran-7-one]	> 1000	–
COc1c2ccoc2cc2oc(=O)ccc12 [5-MOP, 5-Methoxypsoralen]	–	14
